# Biological target: Dihydroorotate dehydrogenase (quinone), mitochondrial (Homo sapiens, UniProt Q02127)
# By UniProt entry, the sequences of proteins in these tests, tags left out. Where a name states a change or a piece, a line headed by the entry shows the natural chain unless it says otherwise.
# UniProt Q02127: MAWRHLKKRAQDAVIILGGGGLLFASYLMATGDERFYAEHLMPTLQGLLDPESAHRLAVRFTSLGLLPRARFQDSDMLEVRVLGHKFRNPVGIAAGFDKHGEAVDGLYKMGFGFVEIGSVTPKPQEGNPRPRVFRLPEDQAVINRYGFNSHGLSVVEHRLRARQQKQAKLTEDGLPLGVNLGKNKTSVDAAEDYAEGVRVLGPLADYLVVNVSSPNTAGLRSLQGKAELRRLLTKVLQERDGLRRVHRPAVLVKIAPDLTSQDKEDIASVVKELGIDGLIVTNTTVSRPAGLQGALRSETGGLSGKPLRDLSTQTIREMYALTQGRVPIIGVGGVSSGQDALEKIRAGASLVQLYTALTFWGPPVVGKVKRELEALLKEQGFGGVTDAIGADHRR
# Assay type: ADME
smiles,measurement,value
Cc1cc(Nc2ccc(S(F)(F)(F)(F)F)cc2)n2nc(C(F)(F)F)nc2n1,IC50,> 100 µM
